{
  "sequences": {"note": "The chains behind the UniProt entries cited, without tags or fusion partners.", "UniProt P23944, whole entry, looked up": "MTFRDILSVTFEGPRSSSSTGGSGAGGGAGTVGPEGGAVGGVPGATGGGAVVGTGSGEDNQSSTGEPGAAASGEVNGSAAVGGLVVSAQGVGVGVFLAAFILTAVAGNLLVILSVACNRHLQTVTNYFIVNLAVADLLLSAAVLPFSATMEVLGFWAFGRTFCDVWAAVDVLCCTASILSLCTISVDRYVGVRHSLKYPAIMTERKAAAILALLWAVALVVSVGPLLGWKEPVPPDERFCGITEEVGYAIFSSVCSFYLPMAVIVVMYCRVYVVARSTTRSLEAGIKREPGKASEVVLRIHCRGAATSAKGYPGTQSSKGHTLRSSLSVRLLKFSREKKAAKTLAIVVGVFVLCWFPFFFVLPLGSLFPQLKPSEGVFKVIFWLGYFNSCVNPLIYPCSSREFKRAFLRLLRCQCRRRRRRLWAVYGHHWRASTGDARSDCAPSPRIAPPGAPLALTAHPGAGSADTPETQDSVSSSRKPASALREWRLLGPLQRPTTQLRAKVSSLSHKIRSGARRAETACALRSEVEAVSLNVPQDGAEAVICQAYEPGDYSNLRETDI"},
  "source": "patent US6448011B1",
  "about": "“DNA encoding human alpha 1 adrenergic receptors and uses thereof” (Synaptic Pharmaceutical Corporation, priority 1992, dated 2002)",
  "origin": "cited, not measured here",
  "key": {"rat α1a receptor": {"biological_target": "rat α1a receptor (Rattus norvegicus, UniProt P23944)", "conditions": "rat α1a in COS-7 cells; cited from earlier work"}, "[1]": {"tested_on": "α1-receptors from the hippocampus or vas deferens (α1a)", "conditions": "cited from earlier work"}},
  "data": [
    {"compound": "CN(CCCl)Cc1cc(Cl)c(NC2=NCCN2)c(Cl)c1", "values": [
      {"measurement": "inactivation of the binding site", "setting": "rat α1a receptor", "value": "resistant to inactivation"},
      {"measurement": "inactivation of α1-receptors", "setting": "[1]", "value": "did not inactivate"}
    ]}
  ]
}
